AlphaSeq binding of Ab-14 light chain variants to a spike HR2 peptide

Source: Li et al. 2023 (doi:10.1038/s41467-023-39022-2), MIT Lincoln Laboratory and A-Alpha Bio; data file from the FLAb repository.

All variants were tested on one target, the spike HR2 peptide PDVDLGDISGINAS (SARS-CoV-2).

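The parent was found by panning a naive human phage display library on the peptide. Designed CDR sequences, proposed from the first random library and measured here. Several design methods are mixed in this list. In AlphaSeq, yeast of one mating type display the scFv and yeast of the other type display the target. Pairs that bind mate more often; barcode pairs of the diploids are counted by sequencing. Read counts were normalised to the haploid input and turned into Kd by a linear fit to BCL2-family pairs of known affinity, for each replicate. There are six technical replicates.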

Parent scFv Ab-14: VH joined to VL by a (GGGGS)3 linker. Changes lie in the light chain CDRs alone.
VH: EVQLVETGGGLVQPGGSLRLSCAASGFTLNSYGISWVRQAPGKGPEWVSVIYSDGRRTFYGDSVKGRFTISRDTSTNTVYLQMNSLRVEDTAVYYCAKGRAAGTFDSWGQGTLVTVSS
VL: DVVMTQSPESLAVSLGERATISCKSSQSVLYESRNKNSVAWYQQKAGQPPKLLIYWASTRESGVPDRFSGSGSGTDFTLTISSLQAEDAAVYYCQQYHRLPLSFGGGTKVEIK

Each variant is given by its three light chain CDRs, as the data file delimits them; those of the parent are KSSQSVLYESRNKNSVA, WASTRES, QQYHRLPLS. Scale: log10 of Kd in nM, estimated from mating counts; low values are strong binders. Replicates are averaged; those with no signal do not enter the mean. Where no diploid with the target was found in any replicate, the entry reads "not detected": below detection, most likely a poor binder, though not proof of it. The list is sorted by this average, lowest first, undetected variants last. Values of this round are not directly comparable with the first-round values of the same sequences.

CDR-L1	CDR-L2	CDR-L3	log10 Kd (nM), mean	replicates with signal	empty controls
KLSQSVLYEQRNKNNVA	DASTRES	QQYHRLPLS	-0.58	6/6	0/18
KISQSDLYESRNKNSVA	GASTRES	QQYHRLPLS	-0.45	6/6	0/18
KLSQSELYESRNKNSVA	NASTRED	QQYHRLPLS	-0.37	6/6	1/18
KSSQSVLGESRNKNSVA	DASTREQ	QQYHRLPLS	-0.34	6/6	0/18
HSSPSGLYESRNKNNVA	NASTRES	QQYHRLPLS	-0.28	6/6	0/18
KSSMSWLYESRNKNSVA	GASTRES	QQYHRLPLS	-0.27	6/6	1/18
KLDFLGPYEQRNKNSVA	SASYRES	QQYHRLPLS	-0.17	6/6	0/18
KSSQIVLGMDGMKNSVA	QASQRES	QQYHRLPLS	-0.17	6/6	2/18
KLSQSVLYESRNKNSVA	NASTRES	QDYHRLPLM	-0.15	6/6	1/18
KVSPSELYEDRNKNSVA	QASQRCS	QQYHRLPLS	-0.14	6/6	0/18
KLSQSQLYESRNKNSVA	QASTRLS	QQYHRLPLS	-0.08	6/6	0/18
KLSQSCLYESRNKNSVA	EASTRCS	QQYHRLPLS	-0.07	6/6	1/18
KLQQSVLYEERNKNSVA	NASQRES	QQYHRLPLS	-0.05	6/6	1/18
KSSISGLYESRMKNSVA	EASTREE	QQYHRLPLS	-0.03	6/6	2/18
KLSQSVLYQSRNKNNVA	EASTRES	QQYHRLPLS	-0.03	6/6	2/18
KVQQSMLYESRNKNNVA	AASDRES	QQYHRLPLS	-0.03	6/6	1/18
ILSQSMLYESRNKNSVA	NASTRWS	QQYHRLPLS	0.06	6/6	1/18
HLEQSEEYESRMKNSVA	NASTRLS	QQYHRLPLS	0.10	6/6	0/18
KLMQSSLYESRNKNSVA	QASTREW	QQYHRLPLS	0.12	6/6	1/18
TLVQSVMTGSRTKNSVA	NAETRYD	QHYHRLPLS	0.15	6/6	0/18
KLSESVLYESRNKNSVA	NASTRES	QQYHRLPLI	0.16	6/6	2/18
KLSQSVLYGDRNKNSVA	HASTRMS	QQYHRLPLY	0.19	6/6	2/18
HAYQSGLYEQRNQNSVA	SASMRES	QQYHRLPLS	0.20	6/6	1/18
KVSPSMWYESRNKNAVA	HASQRES	QQYHRLPLQ	0.22	6/6	0/18
KLSMLMDTTRKNHNSVA	HVTTRSD	QQYNRLPFS	0.23	6/6	0/18
HLSQSVLYESRNKNSVA	NASQRMS	QQYHRLPLS	0.25	6/6	1/18
KSSQSVFEESRNKNSVA	QASTRES	QQYHRLPLS	0.29	6/6	1/18
KLQQSVLYESRQKNSVA	NASQRES	QQYHRLPLS	0.41	6/6	1/18
KIFQSWLMEQRNVNSVA	HASQRLD	QQYHRLPLS	0.41	6/6	1/18
KVSYFNEQVTKHGSNVA	DNETRER	QQYFRLPLS	0.47	6/6	3/18
KSSISYLGEKGNKNSVA	EASTRES	QQYHRLPLS	0.50	6/6	1/18
KSSDSVLYESRNKNSVA	TASTRES	QQYHRLPLS	0.60	6/6	1/18
KSSVSVKFESRNKNSVA	DASTRES	QQYHRLPLS	0.61	6/6	0/18
KFDMHIPYQGEQKAHIA	GTTNRLT	QQYFKLPLS	0.64	6/6	2/18
NVNVSEDQWPLSKNAIA	QTTCRVL	QQYAHLPLS	0.66	6/6	1/18
KLSSITGHMSMAKNNVA	EMVTREN	QQYNRLPLS	0.68	6/6	0/18
KSSQSVLDESRNKNSVA	YASTRES	QFYHMLPLS	0.68	1/6	0/18
KIGATLNQLMHKKNNVA	DLVMREN	QQYFRLPLS	0.71	6/6	2/18
TIGQTLMIGTRNRSNVA	EVSERLN	QQYDRLPLM	0.73	6/6	1/18

The remaining entries, values ahead:

log10 Kd (nM), mean	replicates with signal	empty controls	CDR-L1	CDR-L2	CDR-L3
0.89	2/6	0/18	KSSQSVLYEERNANSVA	WASTRES	QQYHRLPLS
0.95	5/6	1/18	MLSQMWALGMKVKNSVA	QASMRFN	QQYDRLPLI
0.97	6/6	1/18	KLYMSTGYESRNKDSIA	DNSTRGR	QQYYRLPLS
0.98	6/6	0/18	KSSQSVLTESRNKNSVA	HASTRES	QQYHRLPLS
1.01	6/6	1/18	HISQMVMYGSCNKNNVA	QVSMREE	QQYHRLPLS
1.07	6/6	0/18	KFSQSVLYESRNKNSVA	HASTRCS	QQYHRLPLS
1.08	6/6	3/18	KLSQSDLYESRNKNSVA	GASTRED	QQYHRLPLS
1.09	6/6	1/18	KLGSSTRFESSNKAAIA	DNSTRES	QQYHRLPLS
1.10	6/6	0/18	QSSQSVLYESSNKNSVA	WASTRES	QQYHRLPLS
1.11	6/6	1/18	TISQSMNMTSHGRNSVA	QAEMRES	QQYDRLPLS
1.14	6/6	1/18	KLSQSVLYESRTKNSVA	NASTRES	QQYHQLPLS
1.25	6/6	1/18	KLDLENGHENKKGQNIA	EASTAGD	QSYWRLPLY
1.29	6/6	0/18	HSSWSVDDESRNDNSVA	DASTRES	QQYHRLPLS
1.30	6/6	0/18	IISQSMMIESATHNSIA	QTETREE	QQYHHLPLI
1.56	5/6	1/18	MISQLYNMGQFAINSVA	QASLRNE	QQYDRLPLM
1.56	3/6	1/18	KSSQSYLYNSANKNSVA	EASTRES	QQYHRLPLS
1.63	6/6	1/18	MFLEEDFQQLAAHSAVA	NAEEAMT	QHYFRLPLV
1.70	4/6	0/18	MLSQTKDYNYTAGNSVA	EVTEKCN	QQYKRLPLS
1.81	1/6	0/18	MVSQLMLWGYHAKNSIA	EAQMRLN	QQYDRLPLF
1.83	2/6	1/18	MVTQMAMTGMKNKRSVA	NAEMREY	QQYHRLPLI
1.89	6/6	0/18	MISQVLNTLTKQGNNVA	DLQNRED	QQYFRLPLS
1.91	2/6	0/18	KVSSFMRGLMMRTDSIA	DNETRHS	QQYDRLPLS
1.95	6/6	0/18	KLSQSVLFWGHAINSVA	EMETREE	QQYDRLPLS
2.00	6/6	0/18	IIDQLMYWGNKHVNSIA	QASQRLN	QQYHHLPLT
2.01	5/6	2/18	MISQLMNLGQFAINSVA	QASIRTE	QQYDRLPLA
2.03	5/6	0/18	MIQQLYNMGTFAINSVA	QASIRNS	QQYDRLPLM
2.05	1/6	0/18	MLAESAHMESRNKNSVA	DNSTRES	QHYDRLPLS
2.06	6/6	0/18	MITAGLRGVGRNKNSVA	NAQTREQ	QHYHRLPLS
2.48	3/6	0/18	KSSQSVLYESFNKKSVA	WASTRES	QQYHRLPLS
2.55	2/6	2/18	KVSEFMRGLMNRKDSIA	DNVTRSN	QQYDRLPLS
3.01	5/6	0/18	KISMSYRFESQAKNSIA	EMTTREE	QSYHRLPLS
3.04	4/6	2/18	QFTQNIFYGQRDDNSIA	HADELVK	QQYDRFPLD
3.17	1/6	0/18	HMSALTLMGSRNRNSVA	QMTTREN	QQYDRLPLA
not detected	0/6	0/18	KLMQSVLEESRNKNSVA	GASTRES	QQVHISPNS
not detected	0/6	0/18	MISQLINMGSFAINSVA	QASLRCN	QQYDRLPLA
not detected	0/6	0/18	KVSEMMAFLSSNRNNVA	DNSTRGS	QQYHRLPLS
not detected	0/6	0/18	KGSQSFPYESRNKNSVA	WASTRES	QQYHRLPLS
not detected	0/6	1/18	KSSQFVLMESRNKNDVA	WASTRES	LQYHRLPLS
not detected	0/6	0/18	KSSQSVLYESRNQNSVA	WASVRES	QQYHRLPLN

The closing 10 entries, repeated:

{"CDR-L1": "KVSEFMRGLMNRKDSIA", "CDR-L2": "DNVTRSN", "CDR-L3": "QQYDRLPLS", "log10 Kd (nM), mean": "2.55", "replicates with signal": "2/6", "empty controls": "2/18"}
{"CDR-L1": "KISMSYRFESQAKNSIA", "CDR-L2": "EMTTREE", "CDR-L3": "QSYHRLPLS", "log10 Kd (nM), mean": "3.01", "replicates with signal": "5/6", "empty controls": "0/18"}
{"CDR-L1": "QFTQNIFYGQRDDNSIA", "CDR-L2": "HADELVK", "CDR-L3": "QQYDRFPLD", "log10 Kd (nM), mean": "3.04", "replicates with signal": "4/6", "empty controls": "2/18"}
{"CDR-L1": "HMSALTLMGSRNRNSVA", "CDR-L2": "QMTTREN", "CDR-L3": "QQYDRLPLA", "log10 Kd (nM), mean": "3.17", "replicates with signal": "1/6", "empty controls": "0/18"}
{"CDR-L1": "KLMQSVLEESRNKNSVA", "CDR-L2": "GASTRES", "CDR-L3": "QQVHISPNS", "log10 Kd (nM), mean": "not detected", "replicates with signal": "0/6", "empty controls": "0/18"}
{"CDR-L1": "MISQLINMGSFAINSVA", "CDR-L2": "QASLRCN", "CDR-L3": "QQYDRLPLA", "log10 Kd (nM), mean": "not detected", "replicates with signal": "0/6", "empty controls": "0/18"}
{"CDR-L1": "KVSEMMAFLSSNRNNVA", "CDR-L2": "DNSTRGS", "CDR-L3": "QQYHRLPLS", "log10 Kd (nM), mean": "not detected", "replicates with signal": "0/6", "empty controls": "0/18"}
{"CDR-L1": "KGSQSFPYESRNKNSVA", "CDR-L2": "WASTRES", "CDR-L3": "QQYHRLPLS", "log10 Kd (nM), mean": "not detected", "replicates with signal": "0/6", "empty controls": "0/18"}
{"CDR-L1": "KSSQFVLMESRNKNDVA", "CDR-L2": "WASTRES", "CDR-L3": "LQYHRLPLS", "log10 Kd (nM), mean": "not detected", "replicates with signal": "0/6", "empty controls": "1/18"}
{"CDR-L1": "KSSQSVLYESRNQNSVA", "CDR-L2": "WASVRES", "CDR-L3": "QQYHRLPLN", "log10 Kd (nM), mean": "not detected", "replicates with signal": "0/6", "empty controls": "0/18"}

Nonspecific signal, from three strains lacking the peptide, appeared in 4% of pairings of all light chain designs, centred on 2.64 (5% of these signals below 1.59); values are not corrected for it. For each scFv, signals with the empty controls are counted beside the result. The parent sequence was in this pool as ten entries: three were never detected, three once, and four in most replicates, with averages from 0.34 to 2.37. The authors averaged sequences with at least three values out of six and counted those with two or fewer as poor binders.